# Assays:
# [1] = Chemical stability during radiolabeling (radio-HPLC of labeled reaction solution versus probe precursor); settings: 50 nmol precursor
# From the text: In nuclide labeling reaction systems, only a trace amount of nuclide is present (for example, 666 MBq of ^68Ga is only 0.00648 nmol; 2.5 GBq of ^18F is only 0.03944 nmol). Consequently, the precursor (50 nmol) added in each reaction is in vast excess compared to the nuclide atoms. Therefore, if the probe molecular structure remains stable during the radiolabeling process, a sufficient amount of precursor molecules should remain in the reaction solution after labeling. This test example performed radio-HPLC analysis on the reaction solutions after radiolabeling for the different probes prepared in Examples 5-7 and Comparative Examples 4 and 6, and compared the resulting profiles with the HPLC profiles of their corresponding probe precursors to determine stability.
# denatured collagen [2] = test: Biodistribution by 1 h PET/CT, CFPAC-1 subcutaneous tumor-bearing mice and normal mice; settings: for uptake in non-target organs (liver, kidneys etc.): subcutaneous tumor-bearing mice (Al^18F-NOTA2 probe: also normal mice); for uptake in non-target organs (liver, kidneys etc.) / signal-to-noise ratio at the tumor site / tumor signal: approx. 8.42 MBq tail vein
# Protocol: In order to intuitively evaluate the in vivo targeting specificity for denatured collagen and the in vivo biodistribution effects of the various constructed CHP-PET probes, this test example used the human pancreatic cancer cell line CFPAC-1 to construct a mouse subcutaneous tumor model. Subsequently, approximately 8.42 MBq of the collagen hybridizing peptide probes prepared in the above Examples 5-7 and Comparative Examples 3-6 were injected via the tail vein, and PET-CT imaging was performed at designated times.
# The specific construction method for the mouse subcutaneous tumor model was as follows: 3 × 10^6 CFPAC-1 cells were injected into the right shoulder/back of 6-week-old female Balb/c-nu nude mice, and subsequent experiments were conducted when the subcutaneous tumors reached 200 mm^3.
# denatured collagen [3] = test: 1 h dynamic PET-CT and ex vivo biodistribution, CFPAC-1 subcutaneous tumor model; settings: subcutaneous CFPAC-1 tumor, approx. 8.42 MBq tail vein
# Protocol: In this test example, ^68Ga-Cy3-CHP prepared in Example 1 was used as a sample to evaluate the in vivo targeting specificity of the radiolabeled CHP-PET probe constructed in the present disclosure toward denatured collagen. The specific methods were as follows: First, a mouse subcutaneous tumor model was constructed using the human pancreatic cancer cell line CFPAC-1 (3×10^6 CFPAC-1 cells were injected into the right shoulder/back of 6-week-old female Balb/c-nu nude mice; experiments were conducted when the subcutaneous tumors reached 200 mm^3). The mice were divided into three groups. In two of the groups, the subcutaneous tumor-bearing mice were injected via the tail vein with approximately 8.42 MBq of either the denatured collagen-targeting probe ^68Ga-Cy3-CHP or the non-targeting probe ^68Ga-Cy3-^SCHP (the probe prepared in Comparative Example 1). Another group of mice was pre-injected with a blocking dose of the non-radiolabeled precursor probe NOTA-Cy3-CHP before being injected with ^68Ga-Cy3-CHP (blocking group). Dynamic PET-CT imaging was performed for 1 h.
# To verify the PET imaging results, the mice were euthanized after the 1 h dynamic PET imaging, and the tumors were harvested for ex vivo biodistribution analysis, calculated as a percentage of the injected dose per gram (% ID/g).
# [4] = tested on: PDAC lesions in the KPC model; test: Static PET, ex vivo PET and biodistribution for PDAC lesions in the transgenic KPC model; settings: KPC mice >16 weeks, approx. 10 MBq tail vein
# From the text: Since the probes target the ECM, there are significant differences between the tumor ECM induced after injecting human tumor cells, whether in subcutaneous or orthotopic tumor models, and the real tumor ECM. […] The probes prepared in the examples of the present disclosure were used to detect PDAC lesions in the KPC model (>16 weeks of age) to further screen for preferred targeting probes.
# The specific experimental method was as follows: KPC mice and normal mice of the same age were taken, and approximately 10 MBq of ^68Ga-Cy5-CHP was injected into the tail vein of the mice, respectively. Static scans were performed for 2 h. After the static scans, the mice were sacrificed, the pancreas was harvested for ex vivo PET, and the radioactive biodistribution of all organs was determined.
# In order to adjust the biodistribution of radionuclide-labeled molecular probes and thereby improve the in vivo imaging effect of pancreatic tumors, in this section, ^68Ga-Cy5-CHP was improved by using another metal nuclide, ^64Cu, i.e., ^64Cu-Cy5-CHP prepared in the above Example 3 was used for further detection. The specific method was as follows: Approximately 10 MBq of ^64Cu-Cy5-CHP was injected into the tail vein of KPC mice (>16 weeks of age) and normal mice of the same age. Static scans were performed at multiple time points of 2 h, 4 h, 6 h, and 8 h. After 8 h, the pancreas was harvested for ex vivo PET.
# In this section, the nuclide was changed to Al^18F, i.e., the Al^18F-Cy5-CHP probe prepared in Example 4 was used for in vivo imaging of pancreatic tumors. The specific method was as follows: approximately 10 MBq of Al^18F-Cy5-CHP was injected into the tail vein of KPC mice (>16 weeks of age) and normal mice of the same age, and a 3 h static scan was performed.
# denatured collagen [5] = test: PET/CT of bleomycin-induced pulmonary fibrosis mouse model; settings: for accumulation in lungs of BM-treated mice (PET): day 28 after bleomycin 5.0 mg/kg, approx. 9.67 MBq i.v.
# Protocol: To further verify the disease detection versatility of the CHP-PET probe, this test example used a bleomycin-induced pulmonary fibrosis mouse model to explore the potential of the CHP-PET probe for detecting pulmonary fibrosis. The specific method was as follows: Bleomycin (BM) was dissolved in PBS and administered in a single dose of 5.0 mg/kg to each male C57BL/6J mouse (6-8 weeks old); and the control group received no treatment. After bleomycin inhalation, the animals were rotated up and down to distribute the drug solution evenly throughout the lungs. […] The mice were placed in cages and, after their breathing stabilized, returned to the SPF-grade animal room for rearing. On day 28 after drug-induced pulmonary fibrosis, mice were intravenously injected with approximately 9.67 MBq of ^68Ga-Cy5-CHP or ^68Ga-Cy5-^SCHP.
# Immediately after the PET/CT scan, the lungs were collected and subjected to radioactivity measurement. Subsequently, PET-CT imaging was performed for the 7-day inflammatory stage after drug induction. […] It can be seen that ^68Ga-Cy5-CHP can detect lung lesions in vivo and has the potential for non-invasive detection of early pulmonary fibrosis.
# [6] = tested on: denatured collagen in orthotopic abdominal pancreatic tumors; test: 2 h static PET-CT and ex vivo PET, CFPAC-1-LUC orthotopic pancreatic tumor model; settings: for in vivo PET signal in pancreas / visualization of pancreatic tumors: orthotopic tumor-bearing mice
# From the text: One reason PDAC is difficult to detect is its deep anatomical location. Therefore, this test example utilized an orthotopic tumor model using ^68Ga-Cy5-CHP prepared in Example 2 and ^68Ga-Cy5-^SCHP prepared in Comparative Example 2 as samples to evaluate the capability of the radiolabeled CHP-PET probe constructed in the present disclosure for in vivo detection of orthotopic pancreatic tumors in deep anatomical locations. The specific process included the following: An orthotopic model was constructed by injecting 1x10^6 human pancreatic cancer cells (CFPAC-1-LUC) into the tail of the pancreas of 6-week-old female Balb/c-nu nude mice, and the success of the model was confirmed via bioluminescence (as specifically shown in FIG. 6). Normal mice of the same age were injected via the tail vein with approximately 8.42 MBq of ^68Ga-Cy5-CHP; orthotopic tumor-bearing mice were injected via the tail vein with approximately 8.42 MBq of ^68Ga-Cy5-^SCHP (the probe from Comparative Example 2); and another group of mice was pre-injected with a blocking dose of the non-radiolabeled precursor probe NOTA-Cy5-CHP followed by the injection of ^68Ga-Cy5-CHP (blocking group). Static PET-CT imaging was performed for 2 h.
# In contrast, no signal is observed in the pancreas of normal mice, or in model mice using the scrambled probe or the blocking group (as shown in FIG. 7A). After the static scan, the mice were sacrificed, and the pancreas was harvested for ex vivo PET imaging.
# Furthermore, since the orthotopic tumor model involves planting the tumor in the tail region of the pancreas, the harvested pancreas was divided into two parts: the pancreatic tail (tumor) and the pancreatic head. The radioactive uptake of both parts and the ratio of pancreatic tail to pancreatic head were calculated.
# [7] = subcutaneous tumor-bearing mice, 1 h PET/CT
# [8] = approx. 8.42 MBq tail vein, 2 h static PET-CT
substance,measurement,setting,value
Al^18F-NODAGA-Ahx-(GfO)9,structural stability during radiolabeling,"[1]; Al^18F labeling, 110 °C 30 min","very stable during the Al^18F labeling process, with only one radioactive peak"
Al^18F-NOTA2-Ahx-(GfO)9,structural stability during radiolabeling,"[1]; Al^18F labeling, 110 °C 30 min",stable during the Al^18F labeling process and does not undergo radiation degradation
same,"uptake in non-target organs (liver, kidneys etc.)",denatured collagen [2]; 1 h PET/CT,extremely low signals in important non-target organs such as the liver and heart
same,signal-to-noise ratio at the tumor site,denatured collagen [2]; [7],excellent tumor signal-to-noise ratio
Al^18F-NOTA-Ahx-(GfO)9,structural stability during radiolabeling,"[1]; Al^18F labeling, 110 °C 30 min",unstable during the Al^18F labeling process and undergo radiation decomposition
same,"uptake in non-target organs (liver, kidneys etc.)",denatured collagen [2]; 1 h PET/CT,"extremely strong uptake in the liver, kidneys, etc."
same,tumor signal,denatured collagen [2]; [7],signal accumulation in subcutaneous tumors
Cy3-Ahx-K(NOTA-^68Ga)-K(NH2)-Ahx-^S(GfO)9,tumor PET signal during 1 h dynamic imaging,denatured collagen [3],rapid clearance
same,tumor visibility on PET images,denatured collagen [3]; 30 min and 60 min of 1 h dynamic PET,tumors are not observable
Cy5-Ahx-K(NOTA-^64Cu)-K(NH2)-Ahx-(GfO)9,ex vivo PET: probe at tumor site,[4]; pancreas harvested after 8 h,enriched at the tumor site
same,in vivo visualization of PDAC,"[4]; static scans at 2 h, 4 h, 6 h and 8 h",the strong signal from the abdominal intestines interferes with the in vivo visualization of PDAC
Cy5-Ahx-K(NOTA-^68Ga)-Ahx-(GfO)9,"uptake in non-target organs (liver, kidneys etc.)",denatured collagen [2]; 1 h PET/CT,"extremely strong uptake in the liver, kidneys, etc."
same,uptake in the heart,denatured collagen [2]; [7],strong uptake in non-target organs such as the heart
same,tumor signal,denatured collagen [2]; [7],tumor signal almost invisible
Cy5-Ahx-K(NOTA-^68Ga)-K(NH2)-Ahx-(GfO)9,in vivo visualization of PDAC,[4]; 2 h static PET scan,"affected by organs around the pancreas such as the liver, spleen, and kidneys, which to some extent interferes with the in vivo visualization of PDAC"
same,ex vivo PET and organ biodistribution: probe at tumor site,[4]; after 2 h static scan,significant enrichment of the probe at the tumor site of the KPC mice
same,"uptake in the lungs, inflammatory stage","denatured collagen [5]; 7 days after bleomycin, versus normal control",significantly higher than that of the normal control
same,accumulation in lungs of BM-treated mice (PET),denatured collagen [5]; 2 hours post-injection,specifically accumulates in the fibrotic lungs of BM-treated mice at 28 days
same,accumulation in lungs of control mice (PET),"denatured collagen [5]; untreated control mice, 2 hours post-injection",not in the healthy lungs of control mice
same,radioactive uptake in the pancreatic tail tumor site,"[6]; harvested pancreas divided into pancreatic tail (tumor) and pancreatic head, after imaging",significantly high uptake
same,"in vivo PET signal in pancreas, blocking group","[6]; model mice pre-injected with a blocking dose of NOTA-Cy5-CHP, 2 h static PET-CT",no signal is observed
same,in vivo PET signal in pancreas,"[6]; normal mice of the same age, approx. 8.42 MBq tail vein, 2 h static PET-CT",no signal is observed
same,in vivo PET signal in pancreas / visualization of pancreatic tumors,[6]; [8],allows for in vivo visualization of pancreatic tumors
same,"uptake in non-target organs (liver, kidneys etc.)",denatured collagen [2]; 1 h PET/CT,"strong signals are detected in the liver, kidney, and pancreatic positions, especially in the kidneys"
Cy5-Ahx-K(NOTA-^68Ga)-K(NH2)-Ahx-^S(GfO)9,accumulation in lungs of BM-treated mice (PET),denatured collagen [5]; 2 hours post-injection,does not preferentially enter the lungs of BM-treated mice
same,in vivo PET signal in pancreas / visualization of pancreatic tumors,[6]; [8],no signal is observed
^68Ga-NODAGA-Ahx-(GfO)9,structural stability during radiolabeling,[1]; ^68Ga labeling,good stability and does not undergo radiation degradation
same,excretion,denatured collagen [2]; 1 h imaging after tail vein injection,most of the probe have already been excreted from the kidneys into the bladder
same,"uptake in non-target organs (liver, kidneys etc.)",denatured collagen [2]; 1 h PET/CT,low
same,signal-to-noise ratio at the tumor site,denatured collagen [2]; [7],high signal-to-noise ratio at the tumor site
same,tumor signal,denatured collagen [2]; [7],significant signals in the subcutaneous tumor target organs

# — patent EP4821512A1, “RADIOLABELED COLLAGEN HYBRIDIZING PEPTIDE AND PREPARATION METHOD THEREFOR AND USE THEREOF” (dated 2026)
